Experimental data published in US7282522B2, “Hydroxamic acid derivatives and the method for preparing thereof” (Amorepacific Corporation, priority 2003, dated 2007).

Chains of the proteins cited; added tags and fusions are not shown.
UniProt P13631, whole entry, species assumed: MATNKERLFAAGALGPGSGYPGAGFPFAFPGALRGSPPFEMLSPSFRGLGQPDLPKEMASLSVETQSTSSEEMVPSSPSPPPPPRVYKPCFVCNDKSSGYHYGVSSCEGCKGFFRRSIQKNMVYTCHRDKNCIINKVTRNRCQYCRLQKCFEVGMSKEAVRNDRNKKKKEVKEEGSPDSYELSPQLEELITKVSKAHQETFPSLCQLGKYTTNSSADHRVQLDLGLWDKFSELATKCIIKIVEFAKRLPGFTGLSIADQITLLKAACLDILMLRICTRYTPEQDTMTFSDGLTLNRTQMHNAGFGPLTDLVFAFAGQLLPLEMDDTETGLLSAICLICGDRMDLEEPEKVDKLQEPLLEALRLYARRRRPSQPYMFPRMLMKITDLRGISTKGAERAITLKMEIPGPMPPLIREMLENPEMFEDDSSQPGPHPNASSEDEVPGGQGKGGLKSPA

Columns and labels:
collagenase = test: Inhibition of collagenase expression in human fibroblasts (ELISA kit); type: cell-based; details: 10^−4M, 24 hours, serum-free medium, relative to control group = 100
Description: Human fibroblasts were seeded into 96-well microtiter plate at 5,000 cells per well and then cultured to 90% of growth in DMEM (Dulbecco's Modified Eagle's Media) supplemented with 2.5% fetal bovine serum. Then, the fibroblastes were cultured in serum-free DMEM for 24 hours and treated for 24 hours with 10^−4M of hydroxamic acid derivatives of Examples 1˜55, retinol or retinoic acid in serum-free medium, and then the culture fluid was collected.
For each culture fluid, collagenase production was measured with collagenase kit (commercialized by AmershamPharmacia Biotech). Firstly, the culture fluid was added to 96-well plate spread with primary collagenase antibody and then antigen-antibody reaction was performed in an incubator for 3 hours. […] The absorbance of the yellow 96-well plate was measured at 405 nm using absorptiometer. Collagenase expression was calculated by the following equation 1. Herein, the absorbance of the culture fluid collected from the medium with no material treated was used as a control. Collagenase expression (%)=(Absorbance of test group with said material treated/Absorbance of control group with no material treated)×100 [Equation 1]
Collagenase expression was evaluated as a relative value, in consideration that the value of control group with no material treated is 100.

RARγ = target: T1, RARγ (Homo sapiens, UniProt P13631); test: RARE-luciferase reporter assay in transfected CV-1 cells (affinity to retinoic acid receptor), RARγ; type: cell-based; details: treated 24 hours at final concentration 10^−4M, control group 5000
T1 construct: expressed in transfected cells; host or cells: CV-1 cells (ATCC)
Excerpt: This example illustrates affinities of hydroxamic acid derivatives obtained in Examples 1 to 55 to retinoic acid receptor, in comparison with retinol and retinoic acid.
Receptor-expression plasmid, pECE-RARα and pECE-RARγ were engineered by the prior method (Mol. Cell. Biol. 1996, 16, 1138-1149). RARE-tk-Luc, i.e. RARE reporter was obtained by inserting RARE fragment from b-RARE-tk-CAT into pGL3 luciferase basic vector. CV-1 cells were obtained from ATCC (American Type Culture Collection).
CV-1 cells were seeded into 96-well microtiter plate at 5,000 cells per well and cultured in DMEM (Dulbecco's Modified Eagle's Media) supplemented with 2.5% fetal bovine serum. 24 Hours later, the cells were transfected with 10 ng of pECE-RARα, long of pECE-RARγ, 100 ng of reporter plasmid and 100 ng of β-galactosidase-expression vector, using LipofectaminPlus (GIBCO BRL, grand island, N.Y.). 24 Hours post-transfection, the cells were treated for 24 hours with hydroxamic acid derivatives of Examples 1˜55 or retinol at a final concentration of 10^−4M or with retinoic acid at a final concentration of 10^−5M, which is 10 times lower concentration than those of the former.

elastase = test: Inhibition of elastase expression in human fibroblasts (ELISA kit); type: cell-based; details: 10^−4M, 24 hours, serum-free medium, relative to control group = 100
Description: For each culture fluid, elastase production was measured with elastase kit (commercialized by AmershamPharmacia Biotech). Firstly, the culture fluid was added to 96-well plate spread with primary elastase antibody and then antigen-antibody reaction was performed in an incubator for 3 hours. Later, chromophore-conjugated secondary antibody was added to the 96-well plate and then reacted for 15 minutes. Then, color former was added thereto, to induce development at room temperature for 15 minutes. 1M of sulfuric acid was added to stop the reaction. […] The color density depends on the progress of the reaction. The absorbance of the yellow 96-well plate was measured at 405 nm using absorptiometer. Elastase expression was calculated by the following equation 2. Herein, the absorbance of the culture fluid collected from the medium with no material treated was used as a control. Elastase expression (%)=(Absorbance of test group with said material treated/Absorbance of control group with no material treated)×100 [Equation 2]
Elastase expression was evaluated as a relative value, in consideration that the value of control group with no material treated is 100.

white guinea pigs = test: Phototoxicity test (UVA irradiation); details: 50 μl of 1%(w/v) solution, UVA 320~380 nm 15 J/cm^2, observed 24, 48 and 72 hours
procollagen type I = test: Effect on collagen biosynthesis (procollagen type I ELISA) in human fibroblasts; type: cell-based; details: 10^−4M, 24 hours, serum-free medium, relative to control group = 100
Description: Human fibroblasts were seeded into 24-well plate at 1×10^5 cells per well and then cultured to 90% of growth.
For each supernatant, procollagen production was measured with procollagen type I ELISA kit.

rabbits = test: Primary skin irritation test on animals (Draize P.I.I.); details: depilated back

Structure (SMILES): CN(O)C(=O)c1ccc(C(=O)NC23CC4CC(CC(C4)C2)C3)cc1 [Example 44, N-adamantyl [4-(N-hydroxy-N-methylcarbamoyl)phenyl]carboxyamide]
- Collagenase expression (%) (collagenase): 83%
- Luciferase activity RARγ (RARγ): 10700
- Elastase expression (%) (elastase): 63%
- Phototoxic index (white guinea pigs): 0
- Collagen biosynthesis (%) (procollagen type I): 107%
- P.I.I. (Primary Irritation Index) (rabbits; 0.5 ml of 1% solution in 1,3-butylene glycol:ethanol 7:3, observed 24 or 72 hours later): 0.678
- Evaluation (skin irritation) (rabbits; 1% solution, according to Draize's P.I.I.): No irritation
